Reference: patent publication US20250205191A1, “R(-)-MDMA COMPOSITIONS AND METHODS OF TREATMENT” (EmpathBio, Inc., priority 2023, published 2025)

Columns and labels:
[1] = tested on: prolactin; test: Phase 1 hormone response, prolactin; type: in vivo, human; conditions: 125 mg-225 mg vs placebo group
[2] = Phase 1 clinical study, plasma pharmacokinetics; conditions: for dose proportionality in plasma: 75 to 225 mg single oral dose

Row | Compound | concentration of prolactin [1] | dose proportionality in plasma [2] | absorption ([2]; single oral dose of 75 to 225 mg, all dose levels)
1 | CN[C@H](C)Cc1ccc2c(c1)OCO2 [R(−)-MDMA, R(−)-3,4-methylenedioxymethamphetamine] | statistically significant increase | not established | rapidly absorbed
2 | C[C@@H](N)Cc1ccc2c(c1)OCO2 [R-MDA] |  | not established | 
